# Measured values taken from PubChem BioAssay AID592 (National Center for Advancing Translational Sciences (NCATS), 2007).
# This is one part of the list. Some of these compounds have results that are not shown, active ones among them. Calls of active or inactive are those of the source. How the calls were made is not given here.
# Assay: qHTS Assay for Spectroscopic Profiling in A647 Spectral Region
# Conditions: Compound fluorescence, A647 channel (570/671 nm), Tris buffer; hits give high values
# Description: NIH Molecular Libraries Screening Centers Network [MLSCN] NIH Chemical Genomics Center [NCGC] […] Occasionally, the artifactual effect may originate from the compounds own spectral or other biophysical properties which generally tend to track its assay concentration. Pre-screening/profiling the library with respect to the compounds spectral properties should help one exclude false positives early on. While the most informative fluorescent profiling data set is obtained by performing a full excitation and emission scan of each well by using a monochromator-based plate reader, such an approach is practical only on a very limited scale as scanning each well requires long time. An alternative approach, applied here, is to perform plate reader scans using selected excitation and emission wavelength pairs to generate a multidimensional relational database that correlates compound concentration and the respective relative fluorescence intensity at a given wavelength set. A standard curve of Alexa 647 (A647) present on each plate as six-point concentration series, was used to compute a normalized fluorescence response, termed dye-equivalent concentration, for each compound at each concentration.
# NCGC Assay Protocol Summary: Buffer: 100 mM Tris buffer, pH 8.0 Dye standard plate: The wells in columns 1 through 4 of a Kalypsys polypropylene 1536-well compound plate were filled with standard solutions of fluorophore corresponding to the spectral region of interest. Solutions of A647 were placed in the following wells: AC1, AD1: 3 mM, AC2, AD2: 300 uM, AC3, AD3: 30 uM, AC4, AD4: zero (DMSO), AE1, AF1: 3 uM, AE2, AF2: 900 nM, AE3, AF3: 300 nM, AE4, AF4: zero (DMSO). Assay Steps: Six uL of buffer were dispensed to 1536-well Greiner black plates. Compounds and dye standards (23 nL) were transferred via Kalypsys PinTool. The plates were incubated for 15 min at room temperature, and then read on ViewLux (Perkin-Elmer) High-throughput CCD imager using 570 nm and 671 nm excitation and emission filter set. Keywords: NIH Roadmap, MLSCN, MLI, MLSMR, qHTS, NCGC, A647, A-647, Fluorescent Profiling.
row,Structure (SMILES),max dye-equivalent concentration
1,O=C(OC1CN2CCC1CC2)C(CO)(c1ccccc1)c1ccccc1 (stereo not given),inactive: 68 nM
2,CN1CC[C@H](OC(=O)[C@](O)(c2ccccc2)C2CCCC2)C1,inactive: 37 nM
3,CN1CCC[C@H](OC(=O)[C@](O)(c2ccccc2)C2CCCC2)C1,inactive: 36 nM
4,C=C(C)C#C[C@@](O)(C(=O)OC1CCN(C)CC1)c1ccccc1,inactive: 59 nM
5,CN(C)c1cccc(C(=O)NCC2(N(C)C)CCCCC2)c1,inactive: 2.5 nM
